{"source": "patent US11001572B2", "about": "“Pyrimidine derivative, method for preparing same and use thereof in medicine” (Zhejiang Hisun Pharmaceutical Co., Ltd., priority 2016, dated 2021)", "tested_on": "Huh7 tumor-bearing BALB/c nude mice xenografts", "experiment": "Growth inhibition of Huh7 xenografts in BALB/c nude mice", "settings": "mouse", "protocol": "On day 0, Huh7 cells were cultured in DMEM medium containing 10% of fetal bovine serum, 100 U of penicillin, and 100 μg/mL of streptomycin. And cultured in an incubator of 37° C., 5% CO2.\nEach mouse was inoculated subcutaneously in the right axilla with 150 μL of cell suspension (5.0×10^6 cells/mouse) under sterile conditions. On day 12 after inoculation, when the tumor grew to a volume of 200-300 mm^3, mice with similar tumor volume and good shape were selected (the shape was as single spherical as possible, no irregular shape or multiple tumors gathered together) and divided into 5 groups, each group had 9 mice.\nEach group of animals was administrated (intraperitoneal injection (ip) or oral administration (po)) a test substance twice a day (bid) at a fix time per day according to the body weight of the animals. The first dose was administered on the day of grouping ([…]), and continued for 22 days, the body weight of the animals was recorded daily.\nThe formation of tumor in the inoculated part of each group of animals was observed. The long diameter (Y) and short diameter (X) of the tumor nodules were measured twice a week using vernier calipers and calculated according to the following formula: Volume of tumor nodules(V):V=(X^2Y)/2. […]\nThe relative tumor volume (RTV) is calculated as: RTV=100×TVt/TVinitial […]"}
{"smiles": "C=CC(=O)Nc1cc(N2CCN(CC)C3(CC3)C2)ccc1Nc1cc(N(C)C(=O)Nc2c(Cl)c(OC)cc(OC)c2Cl)ncn1", "note": "[Example 5, N-(2-((6-(3-(2,6-Dichloro-3,5-dimethoxyphenyl)-1-methylureido)pyrimidin-4-yl)amino)-5-(4-ethyl-4,7-diazaspiro[2.5]octan-7-yl)phenyl)acrylamide]", "values": [{"measurement": "growth inhibitory effect against the in vivo tumor model in mice established based on Huh-7 cells", "result": "significant growth inhibitory effect"}, {"measurement": "in vivo activity compared with the compound of Example 108 of WO2015057938", "result": "superior to that of the compound of Example 108 of WO2015057938"}]}
